Experimental data as given in patent EP4847489A1, “IMIDAZOLIDINEDIONE HDAC INHIBITOR, AND PREPARATION METHOD THEREFOR AND USE THEREOF” (dated 2026).
Values joined by “and” are separate entries in the source; they are usually repeats but may differ in a detail not shown here. Equal entries are not always repeated.

The chains behind the UniProt entries cited, without tags or fusion partners.
UniProt Q13547, whole entry: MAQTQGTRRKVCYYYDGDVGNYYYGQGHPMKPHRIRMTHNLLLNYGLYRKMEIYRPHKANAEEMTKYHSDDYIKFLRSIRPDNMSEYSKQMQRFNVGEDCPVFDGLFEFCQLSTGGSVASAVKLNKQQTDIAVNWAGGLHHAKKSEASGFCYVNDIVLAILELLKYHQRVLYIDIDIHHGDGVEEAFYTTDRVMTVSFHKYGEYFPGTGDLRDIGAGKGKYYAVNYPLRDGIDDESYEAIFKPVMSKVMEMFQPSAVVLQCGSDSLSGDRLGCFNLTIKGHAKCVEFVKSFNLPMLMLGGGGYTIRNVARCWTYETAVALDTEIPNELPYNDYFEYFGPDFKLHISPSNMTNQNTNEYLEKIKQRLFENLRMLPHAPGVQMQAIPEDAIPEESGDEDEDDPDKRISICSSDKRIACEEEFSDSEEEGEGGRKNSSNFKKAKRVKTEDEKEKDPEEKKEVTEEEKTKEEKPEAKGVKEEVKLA

Key:
DU145 = assay: Anti-proliferative activity in tumor cell lines, CCK 8 assay (DU145); details: read-out: Anti-proliferative activity (IC50, µM) DU145, DU145 cells, 48 h incubation
A549 = assay: Anti-proliferative activity in tumor cell lines, CCK 8 assay (A549); details: read-out: Anti-proliferative activity (IC50, µM) A549, A549 cells, 48 h incubation
HDAC1 = HDAC1 (Homo sapiens, UniProt Q13547); assay: HDAC inhibition assay (HDAC1 inhibitory activity); details: for IC50: read-out: HDAC1 inhibitory activity (IC50)

Structure (SMILES)	IC50 (DU145)	IC50 (A549)	IC50 (HDAC1)	inhibitory activity against HDAC1 relative to the positive control Vorinostat (HDAC1; fold versus Vorinostat)
O=C(CCCCCN1C(=O)N/C(=C\c2ccc3c(c2)CCO3)C1=O)NO	< 0.1 µM	3.68 µM		
COc1ccccc1/C=C1/C(=O)N(CCCCCCC(=O)NO)C(=O)N1C	2.26 µM	4.43 µM	16 nM	
O=C(CCCCCN1C(=O)N/C(=C\c2ccc3ccccc3c2)C1=O)NO	0.77 µM	3.68 µM	2.4 nM	
CN1C(=O)N(Cc2ccc(C(=O)Nc3ccc(F)cc3N)cc2)C(=O)/C1=C/c1cccnc1			175 nM	
O=C(CCCCCN1C(=O)N/C(=C\c2cnc3ccccc3c2)C1=O)NO	3.43 µM		2 nM	
O=C(CCCCCN1C(=O)N/C(=C\c2cccs2)C1=O)NO	1.04 µM	4.86 µM		
COc1ccccc1/C=C1\NC(=O)N(CCCCCCCC(=O)NO)C1=O	1.45 µM	9.7 µM		
Nc1cc(F)ccc1NC(=O)c1ccc(CN2C(=O)N/C(=C\c3cccnc3)C2=O)cc1			180 nM	
COc1cc(Br)ccc1/C=C1/C(=O)N(CCCCCCC(=O)NO)C(=O)N1C	3.53 µM	5.13 µM		
COc1cc(/C=C2\NC(=O)N(CCCCCC(=O)NO)C2=O)cc(OC)c1OC			1.2 nM	
O=C(CCCCCN1C(=O)N/C(=C\c2ccc3occc3c2)C1=O)NO	0.34 µM	4.43 µM		
COc1ccc(/C=C2\NC(=O)N(CCCCCC(=O)NO)C2=O)cc1	< 0.1 µM	1.49 µM	1 nM	
O=C(CCCCCN1C(=O)N/C(=C\c2cccc3ccccc23)C1=O)NO	1.28 µM	4.3 µM		
COc1ccccc1/C=C1\NC(=O)N(CCCCCCCCC(=O)NO)C1=O	> 4 µM		25 nM	
COc1ccccc1/C=C1\NC(=O)N(CCCCCCCCCC(=O)NO)C1=O	> 4 µM		68 nM	
O=C(CCCCCN1C(=O)N/C(=C\c2ccc3c(c2)OCO3)C1=O)NO			5.9 nM	

The next lines start with the values.

IC50 (DU145)	IC50 (A549)	IC50 (HDAC1)	inhibitory activity against HDAC1 relative to the positive control Vorinostat (HDAC1; fold versus Vorinostat)	Structure (SMILES)
< 0.1 µM	9.74 µM	1.7 nM		COc1cccc(/C=C2\NC(=O)N(CCCCCC(=O)NO)C2=O)c1
0.26 µM	7.94 µM	2.8 nM		COc1ccccc1/C=C1\NC(=O)N(CCCCCC(=O)NO)C1=O
< 0.1 µM	2.12 µM			COc1cc(C(F)(F)F)ccc1/C=C1\NC(=O)N(CCCCCC(=O)NO)C1=O
< 0.1 µM	2.42 µM			COc1cc(Cl)ccc1/C=C1\NC(=O)N(CCCCCC(=O)NO)C1=O
< 0.1 µM	4.86 µM			COc1cc(F)ccc1/C=C1\NC(=O)N(CCCCCC(=O)NO)C1=O
		8.6 nM and 6 nM		COc1ccccc1/C=C1\NC(=O)N(CCCCCCC(=O)NO)C1=O
> 4 µM	5.03 µM			COc1cc(Br)ccc1/C=C1\NC(=O)N(CCCCCCC(=O)NO)C1=O
< 0.1 µM	2.04 µM			COc1cc(C)ccc1/C=C1\NC(=O)N(CCCCCC(=O)NO)C1=O
1.65 µM	7.6 µM	7.8 nM		COc1cc(Br)ccc1/C=C1\NC(=O)N(CCCCCCCC(=O)NO)C1=O
< 0.1 µM	2.36 µM	0.57 nM	30 times	COc1cc(Br)ccc1/C=C1\NC(=O)N(CCCCCC(=O)NO)C1=O
> 4 µM	6.82 µM	76 nM		COc1ccccc1/C=C1\NC(=O)N(CCCCC(=O)NO)C1=O
		1.2 nM		COc1ccc(/C=C2\NC(=O)N(CCCCCC(=O)NO)C2=O)c(OC)c1
